In PubChem BioAssay AID1777 (Sanford-Burnham Center for Chemical Genomics, 2009):
This is one part of the list. Results with a measured potency or affinity are listed apart. The source made the active and inactive calls. No stated cut-off is given here; in the data, active means activation above about 50% (passing the limit was not always enough); inactive means the rest.

Amino acid sequences for entries named in this document (tags omitted). A change or cut given only in a name is not applied to a line headed by its entry.
UniProt P41145: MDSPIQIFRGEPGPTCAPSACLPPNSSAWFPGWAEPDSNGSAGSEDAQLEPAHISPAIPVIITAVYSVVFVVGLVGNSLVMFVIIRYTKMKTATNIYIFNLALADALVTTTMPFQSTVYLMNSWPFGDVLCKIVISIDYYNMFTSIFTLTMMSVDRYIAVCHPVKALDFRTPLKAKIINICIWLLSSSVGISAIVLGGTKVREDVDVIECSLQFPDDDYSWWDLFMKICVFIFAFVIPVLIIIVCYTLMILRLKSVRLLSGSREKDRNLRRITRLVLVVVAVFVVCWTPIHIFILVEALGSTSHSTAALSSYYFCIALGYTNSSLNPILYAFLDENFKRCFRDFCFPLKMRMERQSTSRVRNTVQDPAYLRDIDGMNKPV

molecular target: Kappa-type opioid receptor (Homo sapiens) (UniProt P41145); experiment: kappa opioid receptor activators – cell-based, luminescence, uHTS, primary screen (AID 1777); conditions: KOR beta-arrestin recruitment, at 10 µM, hits give high values

Compound | activation
O=C(C1CCCN1S(=O)(=O)c1cccc2cccnc12)N1CCn2c1nc1ccccc12 (centres undefined) | inactive: 1.4%
c1ccc(-c2nn[nH]n2)c(-c2nn[nH]n2)c1 | inactive: 5.7%
O=C(Cn1c(-c2ccco2)nc2ccccc21)N1CCCCC1 | inactive: -0.6%
S=C(Nc1ccccc1)N1CCn2c1nc1ccccc12 | inactive: -2.4%
COc1cccc(/C=N/NC(=O)Cn2cnc3c2c(=O)n(C)c(=O)n3C)c1 | inactive: -2.8%
c1ccc(CN2CCN(CCN3CCn4c3nc3ccccc34)CC2)cc1 | inactive: 5.7%
Cc1nc2ccccc2n1C1CC(=O)N(Cc2ccccc2)C1=O (centres undefined) | inactive: 0.5%
CC(c1ccccc1)N1CCn2c(nc3cc(NS(C)(=O)=O)ccc32)C1 (centres undefined) | inactive: -1.7%
COc1cc(/C=N/NC(=O)Cn2cnc3c2c(=O)n(C)c(=O)n3C)ccc1O | inactive: 1.8%
CCSc1nc2ccccc2n1CC(=O)N1CCOCC1 | inactive: -0.2%
COc1cccc(NC(=O)[C@H](C)NC(=O)N2CCn3c2nc2ccccc23)c1 | inactive: 1.3%
O=C(NC1CCS(=O)(=O)C1)NP(=S)(Oc1ccccc1)Oc1ccccc1 (centres undefined) | inactive: -1.8%
CCNC(=S)/N=C(\N)N[N+](=O)[O-] | inactive: -2.8%
CC(O)CNc1nc2ccccc2n1CC(=O)NCCc1ccc(Cl)cc1 (centres undefined) | inactive: -5.8%
CC(NC(=O)CCNC(=O)N1CCn2c1nc1ccccc12)c1ccccc1 (centres undefined) | inactive: -3.7%
CC1Cc2ccccc2N1C(=O)Cn1cnc2c1c(=O)n(C)c(=O)n2C (centres undefined) | inactive: -1.1%
O=C(Nc1nc2ccccc2n1CCN1CCCCC1)C1CCCCC1 | inactive: 0.3%
Cc1ccc(-c2csc(NCCn3c(C(F)(F)F)nc4ccccc43)n2)cc1 | inactive: -2.3%
Cn1c(=O)c2c(nc(CN3CCN(C(=O)c4ccco4)CC3)n2CC(N)=O)n(C)c1=O | inactive: 0.4%
COc1ccccc1C(=O)Nc1ccc2c(c1)nc1n2CCN(C2CCCCC2)C1 | inactive: 5.4%

Compound | activation
CCC(=O)Nc1cccc(C(=O)/C=C/c2cc(Br)ccc2OC)c1 | inactive: -1.4%
O=C(Cn1c(-c2cscn2)nc2ccccc21)Nc1ccccc1F | inactive: 0.5%
O=C(Nc1nc2ccccc2n1CCN1CCCCC1)c1ccco1 | inactive: 9.9%
O=S(=O)(c1ccccc1)c1nnn2c1nc(NC1CCN(Cc3ccccc3)CC1)c1ccccc12 | inactive: -2.9%
CCCS(=O)(=O)N1CCn2c(nc3ccccc32)C1 | inactive: 8.3%
CC(=O)NC(C)c1nc2ccccc2n1CC(=O)N1C(C)CCCC1C (centres undefined) | inactive: -4.7%
Cc1ccc(CN2C(=O)c3ccccc3NC23CCN(Cc2ccccc2)CC3)cc1 | inactive: 5%
CC(C)NC(=O)Cn1c(SCC(=O)N2c3ccccc3CC2C)nc2ccccc21 (centres undefined) | inactive: -5.8%
O=C(c1ccc(Cl)cc1)N1CCn2c1nc1ccccc12 | inactive: -3.7%
CCOC(=O)CSc1nc2ccccc2n1CC(=O)N(C(C)C)C(C)C | inactive: 4.1%
Cn1c(=O)c2c(ncn2CC(=O)N2CCN(C(=O)c3ccco3)CC2)n(C)c1=O | inactive: -2.4%
O=S(=O)(c1ccccc1)N1CCn2c(nc3ccccc32)C1 | inactive: -1.2%
COc1ccc(NS(=O)(=O)c2cc(NC(=O)Cn3cnc4c3c(=O)n(C)c(=O)n4C)ccc2C)cc1 | inactive: 0.3%
O=C1NCN(c2ccccc2)C12CCNCC2 | inactive: -10%
Cn1c(=O)c2c(ncn2CCNC2=NCCCCC2)n(C)c1=O | inactive: -4.1%
C[C@@H]1C=CCP(=O)(Oc2ccccc2)O1 (some centres undefined) | inactive: -2.3%
O=C(CCNC(=O)N1CCn2c1nc1ccccc12)NCc1ccccc1Cl | inactive: 4.8%
CN(C)C(=O)CSc1nc2ccccc2n1CC(=O)N1CCN(c2ccccc2)CC1 | inactive: -3.6%
CN(C)CCn1c(N)nc2ccccc21 | inactive: -2%
Cc1ccc2c(c1)C1CN(C)CCC1N2Sc1ccccc1[N+](=O)[O-] (centres undefined) | inactive: -2%

Compound | activation
CCC(=O)Nc1nc2ccccc2n1CCN(C)C | inactive: -6.1%
C[C@H]1OP(=O)(Oc2ccccc2)C[C@@H]2O[C@@H]21 (some centres undefined) | inactive: -2.4%
Cc1ccc2c(c1)C1CN(C)CCC1N2C(=O)Nc1cccc(Cl)c1 (centres undefined) | inactive: -2%
CCOc1ccc(S(=O)(=O)N(C)c2ccc(OCC(=O)N3c4ccc(C)cc4C4CN(C)CCC43)cc2)cc1 (centres undefined) | inactive: -0.4%
CC(C)(C)NC(=O)Cn1c(SCC(=O)Nc2nccs2)nc2ccccc21 | inactive: -6.4%
O=C(CCCCCNC(=O)N1CCn2c1nc1ccccc12)N[C@H](C(=O)O)c1ccccc1 | inactive: -2.5%
Cc1ccc2c(c1)C1CN(C)CCC1N2C(=O)COc1ccc(N(C)S(=O)(=O)c2cccs2)cc1 (centres undefined) | inactive: 1.8%
COC(=O)c1ccccc1NC(=O)Cn1c(-c2nonc2N)nc2ccccc21 | inactive: 2.3%
Cn1c(=O)c2c(ncn2CC(=O)N/N=C/C(Cl)=C/c2ccccc2)n(C)c1=O | inactive: -0.8%
O=C(Cn1cnc2ccccc21)N/N=C/C(Br)=C/c1ccccc1 | inactive: 7.1%
CC(NC(=O)CCCCCNC(=O)N1CCn2c1nc1ccccc12)c1ccccc1 (centres undefined) | inactive: 5.6%
O=C(Cn1c(SCC(=O)N2CCCc3ccccc32)nc2ccccc21)N1CCCC1 | inactive: -5.4%
CC(=O)c1ccc(N2CC2c2ccncc2)cc1 (centres undefined) | inactive: -4.4%
Cc1cc(NC(=O)CSc2nc3ccccc3n2CC(=O)N2CCC(C)CC2)no1 | inactive: 3.6%
O=C(CCNC(=O)N1CCn2c1nc1ccccc12)NCc1ccc(Cl)cc1 | inactive: -4.2%
CC(=O)Nc1ccc(Oc2c([N+](=O)[O-])cc([N+](=O)[O-])cc2[N+](=O)[O-])cc1 | inactive: -2.4%
Cc1nc2cc(C(F)(F)F)ccc2n1C1CCN(Cc2nnnn2CCc2ccccc2)CC1 | inactive: -5.1%
CN1C(=O)CC(n2c(CO)nc3ccccc32)C1=O (centres undefined) | inactive: -0.7%
CCOC(=O)c1ccc(NC(=O)C2CC(=O)Nc3nc4ccccc4n32)cc1 (centres undefined) | inactive: -0.2%
